Protein sequences, listed by entry. Tags and fused reporters are not part of them. Lines headed by an entry give the natural chain unless they say otherwise; changes in a name come on top.
UniProt P72583: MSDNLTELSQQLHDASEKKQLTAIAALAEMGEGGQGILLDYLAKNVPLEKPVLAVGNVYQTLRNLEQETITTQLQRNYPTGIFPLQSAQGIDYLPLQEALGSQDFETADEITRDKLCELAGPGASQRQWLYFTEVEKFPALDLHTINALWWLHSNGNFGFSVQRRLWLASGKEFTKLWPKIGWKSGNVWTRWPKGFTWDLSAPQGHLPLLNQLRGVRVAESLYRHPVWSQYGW

In paper PMC1084334, “Structure of the Mg-Chelatase Cofactor GUN4 Reveals a Novel Hand-Shaped Fold for Porphyrin Binding” (PLoS Biology, 2005):

Target: T1, SynGUN4 (Synechocystis sp. PCC 6803, UniProt P72583)
T1 construct: gene sll0558; full length, residues 1-233; E. coli BL21(DE3)
Assay: tryptophan fluorescence quenching
Type: binding

C=CC1=C(C)C2=Cc3c(C=C)c(C)c4[n]3[Fe]([Cl])[n]3c(c(C)c(CCC(=O)O)c3=CC3=NC(=C4)C(C)=C3CCC(=O)O)=CC1=N2 [hemin]
Kd: 4.73 ± 1.16 µM
